SMILES strings stand for the structures.

Sequences of proteins named here, by UniProt entry; tags and fusion partners are left off. A change or cut given only in a name is not applied to a line headed by its entry.
UniProt P05107, whole entry: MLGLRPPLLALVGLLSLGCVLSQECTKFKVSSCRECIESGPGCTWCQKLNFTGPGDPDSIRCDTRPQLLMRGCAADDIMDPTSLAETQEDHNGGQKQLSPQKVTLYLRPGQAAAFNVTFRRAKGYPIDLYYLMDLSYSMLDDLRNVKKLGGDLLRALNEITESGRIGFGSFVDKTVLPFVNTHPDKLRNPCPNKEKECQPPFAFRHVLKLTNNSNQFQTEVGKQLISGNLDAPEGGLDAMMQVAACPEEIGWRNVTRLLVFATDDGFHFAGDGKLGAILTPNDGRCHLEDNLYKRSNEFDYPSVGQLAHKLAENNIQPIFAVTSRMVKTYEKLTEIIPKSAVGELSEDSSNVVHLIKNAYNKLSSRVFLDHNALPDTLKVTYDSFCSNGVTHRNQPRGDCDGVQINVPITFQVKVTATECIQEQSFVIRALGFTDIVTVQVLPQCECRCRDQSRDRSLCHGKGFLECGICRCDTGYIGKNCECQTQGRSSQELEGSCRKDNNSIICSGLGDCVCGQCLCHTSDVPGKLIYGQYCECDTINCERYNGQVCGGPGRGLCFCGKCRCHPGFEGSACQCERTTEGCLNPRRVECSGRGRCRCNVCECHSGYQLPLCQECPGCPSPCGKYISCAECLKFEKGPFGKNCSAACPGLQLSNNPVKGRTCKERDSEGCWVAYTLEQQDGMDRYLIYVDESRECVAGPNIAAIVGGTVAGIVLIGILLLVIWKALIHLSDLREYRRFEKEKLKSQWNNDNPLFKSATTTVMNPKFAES
UniProt P20701: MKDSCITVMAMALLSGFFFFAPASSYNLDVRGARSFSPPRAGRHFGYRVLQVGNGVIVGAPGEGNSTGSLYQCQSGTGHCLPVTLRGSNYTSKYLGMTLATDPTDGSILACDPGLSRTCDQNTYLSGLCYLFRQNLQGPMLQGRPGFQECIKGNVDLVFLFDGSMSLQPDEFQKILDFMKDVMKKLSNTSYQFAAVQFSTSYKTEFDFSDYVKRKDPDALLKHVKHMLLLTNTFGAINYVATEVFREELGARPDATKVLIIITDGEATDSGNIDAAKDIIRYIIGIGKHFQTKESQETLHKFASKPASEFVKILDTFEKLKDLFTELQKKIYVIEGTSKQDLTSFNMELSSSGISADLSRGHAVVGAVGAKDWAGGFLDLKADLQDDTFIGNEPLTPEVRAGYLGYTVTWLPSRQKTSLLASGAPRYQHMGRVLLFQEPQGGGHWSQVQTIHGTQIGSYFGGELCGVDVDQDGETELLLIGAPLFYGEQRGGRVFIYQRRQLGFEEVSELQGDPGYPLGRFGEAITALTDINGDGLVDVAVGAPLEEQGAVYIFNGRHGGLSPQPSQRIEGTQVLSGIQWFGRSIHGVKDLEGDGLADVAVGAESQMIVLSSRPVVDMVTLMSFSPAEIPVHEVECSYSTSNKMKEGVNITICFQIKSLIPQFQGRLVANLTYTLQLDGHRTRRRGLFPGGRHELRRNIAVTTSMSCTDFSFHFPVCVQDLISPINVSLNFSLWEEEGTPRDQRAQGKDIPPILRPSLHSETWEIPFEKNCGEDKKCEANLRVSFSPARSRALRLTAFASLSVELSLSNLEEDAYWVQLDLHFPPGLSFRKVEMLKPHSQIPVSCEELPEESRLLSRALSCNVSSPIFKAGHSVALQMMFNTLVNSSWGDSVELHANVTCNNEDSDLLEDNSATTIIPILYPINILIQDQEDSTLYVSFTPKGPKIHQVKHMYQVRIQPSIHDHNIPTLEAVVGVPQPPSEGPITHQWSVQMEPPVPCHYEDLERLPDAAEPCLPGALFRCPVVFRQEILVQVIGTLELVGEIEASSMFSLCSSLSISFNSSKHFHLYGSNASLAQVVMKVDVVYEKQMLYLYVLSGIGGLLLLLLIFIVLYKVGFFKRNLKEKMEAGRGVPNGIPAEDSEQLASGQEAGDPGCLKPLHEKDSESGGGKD

We go through 1 molecule from ChEMBL document CHEMBL1134304, “Discovery of novel p-arylthio cinnamides as antagonists of leukocyte function-associated antigen-1/intercellular adhesion molecule-1 interaction. 4. Structure-activity relationship of substituents on the benzene ring of the cinnamide” (J Med Chem, 2001).

This assay has as its target Intercellular adhesion molecule (ICAM-1), Integrin alpha-L/beta-2 (Homo sapiens, UniProt P05107+P20701).

The molecule `CC(=O)N1CCN(C(=O)/C=C/c2ccc(Sc3ccccc3C(C)C)c([N+](=O)[O-])c2)CC1` [A-286982] came in with an IC50 of 0.03 µM.
